Test results as given in ChEMBL document CHEMBL5727881, “Pyridone amides as modulators of sodium channels” (2020).

Experiment: Electrophysiology Assay: Patch clamp electrophysiology was used to assess the efficacy and selectivity of sodium channel blockers in dorsal root ganglion neurons. Rat neurons were isolated from the dorsal root ganglions and maintained in culture for 2 to 10 days in the presence of NGF (50 ng/ml) (culture media consisted of NeurobasalA supplemented with B27, glutamine and antibiotics). Small diameter neurons (nociceptors, 8-12 μm in diameter) were visually identified and probed with fine tip glass electrodes connected to an amplifier (Axon Instruments). The “voltage clamp” mode was used to assess the compound's IC50 holding the cells at −60 mV. In addition, the “current clamp” mode was employed to test the efficacy of the compounds in blocking action potential generation in response to current injections. The results of these experiments contributed to the definition of the efficacy profile of the compounds.

With Cc1cc(F)ccc1Oc1ccc(C(F)(F)F)cc1C(=O)Nc1cc[nH]c(=O)c1 the IC50 was 99 nM.
